Assay results published in US8541572B2.

Amino acid sequences for entries named in this document (tags omitted). Residues count along the entry.
UniProt P78536, 215-477 S266A/N452Q: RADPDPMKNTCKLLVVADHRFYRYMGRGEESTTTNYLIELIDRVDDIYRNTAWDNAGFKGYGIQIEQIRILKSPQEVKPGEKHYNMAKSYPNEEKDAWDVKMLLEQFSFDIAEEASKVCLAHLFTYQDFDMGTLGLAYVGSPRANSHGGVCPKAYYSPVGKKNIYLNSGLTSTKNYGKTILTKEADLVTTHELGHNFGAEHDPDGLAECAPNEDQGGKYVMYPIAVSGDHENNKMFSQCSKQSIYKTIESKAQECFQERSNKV

Biological target: recombinant human TACE catalytic domain (rhTACEc) (Homo sapiens (Human), UniProt P78536, N452Q/S266A)
Experiment: TACE kinetic FRET assay (cleavage of internally quenched peptide substrate TNF-FRET 2), Ki
[1] = recombinant human TACE catalytic domain, FRET assay

| Ki [1] [nM] | Compound | also measured |
| --- | --- | --- |
| 1.15 | CCN1CCN(C(=O)C2CCC(=O)N2c2ccc(OC)c(C#C[C@]3(CN4Cc5ccc(OC)cc5C4=O)NC(=O)NC3=O)n2)CC1 (stereo partly shown) [Compound 1917] | – |
| 0.253 | COc1ccc2c(c1)C(=O)N(C[C@@]1(C#Cc3ccc4c(c3)c(O)nn4C)NC(=O)NC1=O)C2 [Compound 712] | – |
| 0.15 | COc1ccc2c(c1)C(=O)N(C[C@@]1(C#Cc3cc(C(N)=O)ccc3C)NC(=O)NC1=O)C2 [Compound 2220] | – |
| – | COc1ccc2c(c1)C(=O)N(C[C@@]1(C#Cc3ccc(C(=NO)N4CCNC[C@@H]4C)cc3)NC(=O)NC1=O)C2 [Compound 2293] | Ki: 0.43 nM |
| 0.35 | COc1ccc2c(c1)C(=O)N(C[C@@]1(C#Cc3cncc(NC(=O)C4CCN(C)CC4)c3)NC(=O)NC1=O)C2 [Compound 1908] | – |
| – | COc1ccc2c(c1)C(=O)N(C[C@@]1(C#Cc3ccc4oc(C5(C)NC(=O)NC5=O)c(C)c4c3)NC(=O)NC1=O)C2 (stereo partly shown) [Compound 910] | Ki (TACE): 0.22 nM |
| 0.18 | COc1ccc2c(c1F)C(=O)N(C[C@@]1(C#Cc3cncc(NC(=O)C4CCN(C)CC4)c3)NC(=O)NC1=O)C2 [Compound 1907] | – |
| – | CCN1CCC(C(=O)OC)(c2ccc(C#C[C@]3(CN4Cc5ccc(OC)cc5C4=O)NC(=O)NC3=O)cc2)CC1 [Compound 2276] | Ki (TACE): 0.283 nM |
| 0.24 | COc1ccc2c(c1)C(=O)N(C[C@@]1(C#Cc3ccc(N4C(=O)CCC4C(=O)N4CCN(C)CC4)cc3)NC(=O)NC1=O)C2 (stereo partly shown) [Compound 1905] | – |
| 0.52 | COc1ccc2c(c1)C(=O)N(C[C@@]1(C#Cc3ccc(-n4cnc(CCNC(C)=O)c4)cc3)NC(=O)NC1=O)C2 [Compound 1120] | – |
| 0.2 | COc1ccc2c(c1)C(=O)N(C[C@@]1(C#Cc3ccc(-c4nnc[nH]4)cc3OC)NC(=O)NC1=O)C2 [Compound 2223] | – |
| 0.754 | CCN1CCN(c2n[nH]c3ccc(C#C[C@]4(CN5Cc6ccc(OC)cc6C5=O)NC(=O)NC4=O)cc23)CC1 [Compound 2238] | – |
| 0.9 | COc1ccc2c(c1)C(=O)N(C[C@@]1(C#Cc3nc(-c4ccc(S(=O)(=O)NC5CC5)cc4)ccc3OC)NC(=O)NC1=O)C2 [Compound 1512] | – |
| – | COc1ccc2c(c1)C(=O)N(C[C@@]1(C#Cc3cccc(C(=NO)N4CCN(C)CC4)c3)NC(=O)NC1=O)C2 [Compound 915] | Ki: 0.24 nM |
| – | COc1ccc2c(c1)C(=O)N(C[C@@]1(C#Cc3ccc(NCCN(C)C)nc3)NC(=O)NC1=O)C2 [Compound 2289] | Ki (TACE): 0.43 nM |
| 0.452 | COc1ccc2c(c1)C(=O)N(C[C@@]1(C#Cc3ccc(C(=O)N4CCN(C5CCCCC5)CC4)cc3)NC(=O)NC1=O)C2 [Compound 962] | – |

Like-named read-outs stand apart in the source and are kept apart here.
